Reference: patent US7192924B2, “Corticotropin releasing factor 2 receptor agonists” (priority 2002, dated 2007)
Like-named read-outs stand apart in the source and are kept apart here.

Key:
CRF1R = molecular target: T1, CRF1R (Homo sapiens, UniProt P34998); experiment: CRF1R agonist activity (EC50, Emax), called comparative CRF binding; assay type: cell-based
T1 sequence (P34998 24-415): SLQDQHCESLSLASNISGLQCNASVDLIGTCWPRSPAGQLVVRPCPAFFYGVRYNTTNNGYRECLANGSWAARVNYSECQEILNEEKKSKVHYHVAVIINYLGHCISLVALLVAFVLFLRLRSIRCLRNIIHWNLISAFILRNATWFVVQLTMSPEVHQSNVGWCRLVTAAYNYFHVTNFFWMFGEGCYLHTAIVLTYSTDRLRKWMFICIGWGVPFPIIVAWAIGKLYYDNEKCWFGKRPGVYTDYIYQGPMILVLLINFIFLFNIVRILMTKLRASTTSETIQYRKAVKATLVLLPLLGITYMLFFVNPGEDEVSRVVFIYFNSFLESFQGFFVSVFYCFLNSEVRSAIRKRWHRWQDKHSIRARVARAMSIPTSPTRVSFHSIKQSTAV
How it was run: (§1)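 Single-subtype CRFR cells, peptide vs vehicle, cAMP via CRE-reporter or lysate assay; background from other CRFR type subtracted if present.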

CRF2R = molecular target: T2, CRF2R (Homo sapiens, UniProt Q13324); experiment: CRF2R agonist activity (EC50, Emax), called comparative CRF binding; assay type: cell-based
T2 sequence (Q13324 1-411): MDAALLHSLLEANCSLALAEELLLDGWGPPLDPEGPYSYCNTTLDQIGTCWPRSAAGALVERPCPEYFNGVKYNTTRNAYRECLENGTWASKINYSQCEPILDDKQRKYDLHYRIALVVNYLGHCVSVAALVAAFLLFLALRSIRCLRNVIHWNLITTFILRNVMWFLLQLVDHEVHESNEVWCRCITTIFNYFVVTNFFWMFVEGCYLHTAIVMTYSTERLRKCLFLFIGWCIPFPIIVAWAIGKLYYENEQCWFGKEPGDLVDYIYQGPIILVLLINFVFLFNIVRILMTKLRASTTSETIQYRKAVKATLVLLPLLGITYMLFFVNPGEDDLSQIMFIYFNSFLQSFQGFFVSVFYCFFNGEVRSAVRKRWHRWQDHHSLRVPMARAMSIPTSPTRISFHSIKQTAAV
How it was run: as §1

CC[C@H](C)[C@H](NC(=O)[C@H](CCC(=O)O)NC(=O)[C@@H](NC(=O)[C@H](CCSC)NC(=O)[C@H](CCCCN)NC(=O)[C@H](CCCNC(=N)N)NC(=O)[C@H](CC(C)C)NC(=O)[C@H](CC(C)C)NC(=O)[C@H](CCC(N)=O)NC(=O)[C@H](Cc1ccccc1)NC(=O)[C@@H]1CCCN1C(=O)[C@H](CC(C)C)NC(=O)[C@H](CC(=O)O)NC(=O)[C@@H](NC(=O)[C@H](CO)NC(=O)[C@@H](NC(=O)[C@@H]1CCCN1C(=O)[C@@H]1CCCN1C(=O)CNC(=O)[C@@H]1CCC(=O)N1)[C@@H](C)CC)[C@@H](C)CC)[C@@H](C)CC)C(=O)N[C@@H](CCC(=O)O)C(=O)N[C@@H](CCCCN)C(=O)N[C@@H](CCC(N)=O)C(=O)N[C@@H](CCC(=O)O)C(=O)N[C@@H](CCCCN)C(=O)N[C@@H](CCC(=O)O)C(=O)N[C@@H](CCCCN)C(=O)N[C@@H](CCC(N)=O)C(=O)N[C@@H](CCC(N)=O)C(=O)N[C@@H](C)C(=O)N[C@H](C(=O)N[C@H](C(=O)N[C@@H](CC(N)=O)C(=O)N[C@@H](C)C(=O)N[C@@H](CCCNC(=N)N)C(=O)N[C@@H](CC(C)C)C(=O)N[C@@H](CC(C)C)C(=O)N[C@@H](C)C(=O)N[C@H](C(=O)N[C@H](C(N)=O)C(C)C)[C@@H](C)O)[C@@H](C)O)[C@@H](C)O [compound 21] showed an EC50 (CRF1R) of 908 nM and an EC50 (CRF2R) of 8.46 nM.

CC[C@H](C)[C@H](NC(=O)[C@@H](NC(=O)[C@H](CC(=O)O)NC(=O)[C@H](CC(C)C)NC(=O)[C@H](CC(C)C)NC(=O)[C@H](CC(C)C)NC(=O)[C@H](CCCNC(=N)N)NC(=O)[C@H](CC(N)=O)NC(=O)[C@H](CC(N)=O)NC(=O)[C@H](C)NC(=O)[C@H](C)NC(=O)[C@H](CCC(N)=O)NC(=O)[C@H](CCC(N)=O)NC(=O)[C@H](CCCCN)NC(=O)[C@H](CCC(=O)O)NC(=O)[C@H](CCCCN)NC(=O)[C@H](CCC(=O)O)NC(=O)[C@H](CCC(N)=O)NC(=O)[C@H](CCCCN)NC(=O)[C@H](CCC(=O)O)NC(=O)[C@@H](NC(=O)[C@H](CCC(=O)O)NC(=O)[C@@H](NC(=O)[C@H](CCSC)NC(=O)[C@H](CCCCN)NC(=O)[C@H](CCCNC(=N)N)NC(=O)[C@H](CC(C)C)NC(=O)[C@H](CC(C)C)NC(=O)[C@@H](NC(=O)[C@H](CC(C)C)NC(=O)[C@@H]1CCCN1C(=O)[C@H](CC(C)C)NC(=O)[C@H](CC(=O)O)NC(=O)[C@@H](NC(=O)[C@H](CO)NC(=O)[C@@H](NC(=O)[C@@H]1CCCN1C(=O)[C@@H]1CCCN1C(=O)CNC(=O)[C@@H]1CCC(=O)N1)[C@@H](C)CC)[C@@H](C)CC)C(C)C)[C@@H](C)CC)[C@@H](C)CC)[C@@H](C)O)C(N)=O [compound 193] gave an EC50 (CRF1R) of 265 nM and an EC50 (CRF2R) of 10.1 nM.

Compound CC[C@H](C)[C@H](NC(=O)[C@@H](NC(=O)[C@H](CC(=O)O)NC(=O)[C@H](CC(C)C)NC(=O)[C@H](CC(C)C)NC(=O)[C@H](CC(C)C)NC(=O)[C@H](CCCNC(=N)N)NC(=O)[C@H](CC(N)=O)NC(=O)[C@H](CC(N)=O)NC(=O)[C@H](C)NC(=O)[C@H](C)NC(=O)[C@H](CCC(N)=O)NC(=O)[C@H](CCC(N)=O)NC(=O)[C@H](CCCCN)NC(=O)[C@H](CCC(=O)O)NC(=O)[C@H](CCCCN)NC(=O)[C@H](CCC(=O)O)NC(=O)[C@H](CCC(N)=O)NC(=O)[C@H](CCCCN)NC(=O)[C@H](CCC(=O)O)NC(=O)[C@@H](NC(=O)[C@H](CCC(=O)O)NC(=O)[C@@H](NC(=O)[C@H](CCSC)NC(=O)[C@H](CCCCN)NC(=O)[C@H](CCCNC(=N)N)NC(=O)[C@H](CC(C)C)NC(=O)[C@H](CC(C)C)NC(=O)[C@H](CCC(=O)O)NC(=O)[C@H](Cc1ccccc1)NC(=O)[C@@H]1CCCN1C(=O)[C@H](CC(C)C)NC(=O)[C@H](CC(=O)O)NC(=O)[C@@H](NC(=O)[C@H](CO)NC(=O)[C@@H](NC(=O)[C@@H]1CCCN1C(=O)[C@@H]1CCCN1C(=O)CNC(=O)[C@@H]1CCC(=O)N1)[C@@H](C)CC)[C@@H](C)CC)[C@@H](C)CC)[C@@H](C)CC)[C@@H](C)O)C(N)=O [compound 67] has an EC50 (CRF1R) of 44.2 nM and an EC50 (CRF2R) of 10 nM.

Compound CC[C@H](C)[C@H](NC(=O)[C@@H](NC(=O)[C@H](CC(=O)O)NC(=O)[C@H](CC(C)C)NC(=O)[C@H](CC(C)C)NC(=O)[C@H](CC(C)C)NC(=O)[C@H](C)NC(=O)[C@H](CC(N)=O)NC(=O)[C@H](CC(N)=O)NC(=O)[C@H](C)NC(=O)[C@H](C)NC(=O)[C@H](CCC(N)=O)NC(=O)[C@H](CCC(N)=O)NC(=O)[C@H](CCCCN)NC(=O)[C@H](CCC(=O)O)NC(=O)[C@H](CCCCN)NC(=O)[C@H](CCC(=O)O)NC(=O)[C@H](CCC(N)=O)NC(=O)[C@H](CCCCN)NC(=O)[C@H](CCC(=O)O)NC(=O)[C@@H](NC(=O)[C@H](CCC(=O)O)NC(=O)[C@@H](NC(=O)[C@H](CCSC)NC(=O)[C@H](CCCCN)NC(=O)[C@H](CCCNC(=N)N)NC(=O)[C@H](CC(C)C)NC(=O)[C@H](CC(C)C)NC(=O)[C@H](Cc1ccc(O)cc1)NC(=O)[C@H](CCC(N)=O)NC(=O)[C@@H]1CCCN1C(=O)[C@H](CC(C)C)NC(=O)[C@H](CC(=O)O)NC(=O)[C@@H](NC(=O)[C@H](CO)NC(=O)[C@@H](NC(=O)[C@@H]1CCCN1C(=O)[C@@H]1CCCN1C(=O)CNC(=O)[C@@H]1CCC(=O)N1)[C@@H](C)CC)[C@@H](C)CC)[C@@H](C)CC)[C@@H](C)CC)[C@@H](C)O)C(N)=O [compound 224] has an EC50 (CRF1R; read-out: CRF1R EC50) of no less than 1000 nM and an EC50 (CRF2R; read-out: CRF2R EC50) of 26.9 nM.

CC[C@H](C)[C@H](NC(=O)[C@@H](NC(=O)[C@H](CC(=O)O)NC(=O)[C@H](CC(C)C)NC(=O)[C@H](CC(C)C)NC(=O)[C@H](CC(C)C)NC(=O)[C@H](CCCNC(=N)N)NC(=O)[C@H](CC(N)=O)NC(=O)[C@H](CC(N)=O)NC(=O)[C@H](C)NC(=O)[C@H](C)NC(=O)[C@H](CCC(N)=O)NC(=O)[C@H](CCC(N)=O)NC(=O)[C@H](CCCCN)NC(=O)[C@H](CCC(=O)O)NC(=O)[C@H](CCCCN)NC(=O)[C@H](CCC(=O)O)NC(=O)[C@H](CCC(N)=O)NC(=O)[C@H](CCCCN)NC(=O)[C@H](CCC(=O)O)NC(=O)[C@@H](NC(=O)[C@H](CCC(=O)O)NC(=O)[C@@H](NC(=O)[C@H](CCSC)NC(=O)[C@H](CCCCN)NC(=O)[C@H](CCCNC(=N)N)NC(=O)[C@H](CC(C)C)NC(=O)[C@H](CC(C)C)NC(=O)[C@H](Cc1c[nH]c2ccccc12)NC(=O)[C@H](CC(C)C)NC(=O)[C@@H]1CCCN1C(=O)[C@H](CC(C)C)NC(=O)[C@H](CC(=O)O)NC(=O)[C@@H](NC(=O)[C@H](CO)NC(=O)[C@@H](NC(=O)[C@@H]1CCCN1C(=O)[C@@H]1CCCN1C(=O)CNC(=O)[C@@H]1CCC(=O)N1)[C@@H](C)CC)[C@@H](C)CC)[C@@H](C)CC)[C@@H](C)CC)[C@@H](C)O)C(N)=O [compound 218] showed an EC50 (CRF1R; read-out: CRF1R EC50) of 98.4 nM and an EC50 (CRF2R; read-out: CRF2R EC50) of 4.8 nM.

CC[C@H](C)[C@H](NC(=O)[C@@H](NC(=O)[C@H](CC(=O)O)NC(=O)[C@H](CC(C)C)NC(=O)[C@H](CC(C)C)NC(=O)[C@H](CC(C)C)NC(=O)[C@H](CCCNC(=N)N)NC(=O)[C@H](CC(N)=O)NC(=O)[C@H](CC(N)=O)NC(=O)[C@H](C)NC(=O)[C@H](C)NC(=O)[C@H](CCC(N)=O)NC(=O)[C@H](CCC(N)=O)NC(=O)[C@H](CCCCN)NC(=O)[C@H](CCC(=O)O)NC(=O)[C@H](CCCCN)NC(=O)[C@H](CCC(=O)O)NC(=O)[C@H](CCC(N)=O)NC(=O)[C@H](CCCCN)NC(=O)[C@H](CCC(=O)O)NC(=O)[C@@H](NC(=O)[C@H](CCC(=O)O)NC(=O)[C@@H](NC(=O)[C@H](CCSC)NC(=O)[C@H](CCCCN)NC(=O)[C@H](CCCNC(=N)N)NC(=O)[C@H](CC(C)C)NC(=O)[C@H](CC(C)C)NC(=O)[C@H](CC(C)C)NC(=O)[C@@H](NC(=O)[C@@H]1CCCN1C(=O)[C@H](CC(C)C)NC(=O)[C@H](CC(=O)O)NC(=O)[C@@H](NC(=O)[C@H](CO)NC(=O)[C@@H](NC(=O)[C@@H]1CCCN1C(=O)[C@@H]1CCCN1C(=O)CNC(=O)[C@@H]1CCC(=O)N1)[C@@H](C)CC)[C@@H](C)CC)[C@@H](C)CC)[C@@H](C)CC)[C@@H](C)CC)[C@@H](C)O)C(N)=O [compound 35] showed an EC50 (CRF1R; read-out: CRF1R EC50) greater than 1000 nM and an EC50 (CRF2R; read-out: CRF2R EC50) of 15.6 nM.

Compound CC[C@H](C)[C@H](NC(=O)[C@@H](NC(=O)[C@H](CC(=O)O)NC(=O)[C@H](CC(C)C)NC(=O)[C@H](CC(C)C)NC(=O)[C@H](CC(C)C)NC(=O)[C@H](CCCNC(=N)N)NC(=O)[C@H](CC(N)=O)NC(=O)[C@H](CC(N)=O)NC(=O)[C@H](C)NC(=O)[C@H](C)NC(=O)[C@H](CCC(N)=O)NC(=O)[C@H](CCC(N)=O)NC(=O)[C@H](CCCCN)NC(=O)[C@H](CCC(=O)O)NC(=O)[C@H](CCCCN)NC(=O)[C@H](CCC(=O)O)NC(=O)[C@H](CCC(N)=O)NC(=O)[C@H](CCCCN)NC(=O)[C@H](CCC(=O)O)NC(=O)[C@@H](NC(=O)[C@H](CCC(=O)O)NC(=O)[C@@H](NC(=O)[C@H](CCSC)NC(=O)[C@H](CCCCN)NC(=O)[C@H](CCCNC(=N)N)NC(=O)[C@H](CC(C)C)NC(=O)[C@H](CC(C)C)NC(=O)[C@H](Cc1ccc(O)cc1)NC(=O)[C@H](CCCCN)NC(=O)[C@@H]1CCCN1C(=O)[C@H](CC(C)C)NC(=O)[C@H](CC(=O)O)NC(=O)[C@@H](NC(=O)[C@H](CO)NC(=O)[C@@H](NC(=O)[C@@H]1CCCN1C(=O)[C@@H]1CCCN1C(=O)CNC(=O)[C@@H]1CCC(=O)N1)[C@@H](C)CC)[C@@H](C)CC)[C@@H](C)CC)[C@@H](C)CC)[C@@H](C)O)C(N)=O [compound 58] has an EC50 (CRF1R) greater than 100 nM and an EC50 (CRF2R) of 71.6 nM.
